Assay results taken from article PMC11488158, “Propofol binds and inhibits skeletal muscle ryanodine receptor 1” (BJA: British Journal of Anaesthesia, 2024).

By UniProt entry, the sequences of proteins in these tests, tags left out. Where a name states a change or a piece, a line headed by the entry shows the natural chain unless it says otherwise.
UniProt P21817: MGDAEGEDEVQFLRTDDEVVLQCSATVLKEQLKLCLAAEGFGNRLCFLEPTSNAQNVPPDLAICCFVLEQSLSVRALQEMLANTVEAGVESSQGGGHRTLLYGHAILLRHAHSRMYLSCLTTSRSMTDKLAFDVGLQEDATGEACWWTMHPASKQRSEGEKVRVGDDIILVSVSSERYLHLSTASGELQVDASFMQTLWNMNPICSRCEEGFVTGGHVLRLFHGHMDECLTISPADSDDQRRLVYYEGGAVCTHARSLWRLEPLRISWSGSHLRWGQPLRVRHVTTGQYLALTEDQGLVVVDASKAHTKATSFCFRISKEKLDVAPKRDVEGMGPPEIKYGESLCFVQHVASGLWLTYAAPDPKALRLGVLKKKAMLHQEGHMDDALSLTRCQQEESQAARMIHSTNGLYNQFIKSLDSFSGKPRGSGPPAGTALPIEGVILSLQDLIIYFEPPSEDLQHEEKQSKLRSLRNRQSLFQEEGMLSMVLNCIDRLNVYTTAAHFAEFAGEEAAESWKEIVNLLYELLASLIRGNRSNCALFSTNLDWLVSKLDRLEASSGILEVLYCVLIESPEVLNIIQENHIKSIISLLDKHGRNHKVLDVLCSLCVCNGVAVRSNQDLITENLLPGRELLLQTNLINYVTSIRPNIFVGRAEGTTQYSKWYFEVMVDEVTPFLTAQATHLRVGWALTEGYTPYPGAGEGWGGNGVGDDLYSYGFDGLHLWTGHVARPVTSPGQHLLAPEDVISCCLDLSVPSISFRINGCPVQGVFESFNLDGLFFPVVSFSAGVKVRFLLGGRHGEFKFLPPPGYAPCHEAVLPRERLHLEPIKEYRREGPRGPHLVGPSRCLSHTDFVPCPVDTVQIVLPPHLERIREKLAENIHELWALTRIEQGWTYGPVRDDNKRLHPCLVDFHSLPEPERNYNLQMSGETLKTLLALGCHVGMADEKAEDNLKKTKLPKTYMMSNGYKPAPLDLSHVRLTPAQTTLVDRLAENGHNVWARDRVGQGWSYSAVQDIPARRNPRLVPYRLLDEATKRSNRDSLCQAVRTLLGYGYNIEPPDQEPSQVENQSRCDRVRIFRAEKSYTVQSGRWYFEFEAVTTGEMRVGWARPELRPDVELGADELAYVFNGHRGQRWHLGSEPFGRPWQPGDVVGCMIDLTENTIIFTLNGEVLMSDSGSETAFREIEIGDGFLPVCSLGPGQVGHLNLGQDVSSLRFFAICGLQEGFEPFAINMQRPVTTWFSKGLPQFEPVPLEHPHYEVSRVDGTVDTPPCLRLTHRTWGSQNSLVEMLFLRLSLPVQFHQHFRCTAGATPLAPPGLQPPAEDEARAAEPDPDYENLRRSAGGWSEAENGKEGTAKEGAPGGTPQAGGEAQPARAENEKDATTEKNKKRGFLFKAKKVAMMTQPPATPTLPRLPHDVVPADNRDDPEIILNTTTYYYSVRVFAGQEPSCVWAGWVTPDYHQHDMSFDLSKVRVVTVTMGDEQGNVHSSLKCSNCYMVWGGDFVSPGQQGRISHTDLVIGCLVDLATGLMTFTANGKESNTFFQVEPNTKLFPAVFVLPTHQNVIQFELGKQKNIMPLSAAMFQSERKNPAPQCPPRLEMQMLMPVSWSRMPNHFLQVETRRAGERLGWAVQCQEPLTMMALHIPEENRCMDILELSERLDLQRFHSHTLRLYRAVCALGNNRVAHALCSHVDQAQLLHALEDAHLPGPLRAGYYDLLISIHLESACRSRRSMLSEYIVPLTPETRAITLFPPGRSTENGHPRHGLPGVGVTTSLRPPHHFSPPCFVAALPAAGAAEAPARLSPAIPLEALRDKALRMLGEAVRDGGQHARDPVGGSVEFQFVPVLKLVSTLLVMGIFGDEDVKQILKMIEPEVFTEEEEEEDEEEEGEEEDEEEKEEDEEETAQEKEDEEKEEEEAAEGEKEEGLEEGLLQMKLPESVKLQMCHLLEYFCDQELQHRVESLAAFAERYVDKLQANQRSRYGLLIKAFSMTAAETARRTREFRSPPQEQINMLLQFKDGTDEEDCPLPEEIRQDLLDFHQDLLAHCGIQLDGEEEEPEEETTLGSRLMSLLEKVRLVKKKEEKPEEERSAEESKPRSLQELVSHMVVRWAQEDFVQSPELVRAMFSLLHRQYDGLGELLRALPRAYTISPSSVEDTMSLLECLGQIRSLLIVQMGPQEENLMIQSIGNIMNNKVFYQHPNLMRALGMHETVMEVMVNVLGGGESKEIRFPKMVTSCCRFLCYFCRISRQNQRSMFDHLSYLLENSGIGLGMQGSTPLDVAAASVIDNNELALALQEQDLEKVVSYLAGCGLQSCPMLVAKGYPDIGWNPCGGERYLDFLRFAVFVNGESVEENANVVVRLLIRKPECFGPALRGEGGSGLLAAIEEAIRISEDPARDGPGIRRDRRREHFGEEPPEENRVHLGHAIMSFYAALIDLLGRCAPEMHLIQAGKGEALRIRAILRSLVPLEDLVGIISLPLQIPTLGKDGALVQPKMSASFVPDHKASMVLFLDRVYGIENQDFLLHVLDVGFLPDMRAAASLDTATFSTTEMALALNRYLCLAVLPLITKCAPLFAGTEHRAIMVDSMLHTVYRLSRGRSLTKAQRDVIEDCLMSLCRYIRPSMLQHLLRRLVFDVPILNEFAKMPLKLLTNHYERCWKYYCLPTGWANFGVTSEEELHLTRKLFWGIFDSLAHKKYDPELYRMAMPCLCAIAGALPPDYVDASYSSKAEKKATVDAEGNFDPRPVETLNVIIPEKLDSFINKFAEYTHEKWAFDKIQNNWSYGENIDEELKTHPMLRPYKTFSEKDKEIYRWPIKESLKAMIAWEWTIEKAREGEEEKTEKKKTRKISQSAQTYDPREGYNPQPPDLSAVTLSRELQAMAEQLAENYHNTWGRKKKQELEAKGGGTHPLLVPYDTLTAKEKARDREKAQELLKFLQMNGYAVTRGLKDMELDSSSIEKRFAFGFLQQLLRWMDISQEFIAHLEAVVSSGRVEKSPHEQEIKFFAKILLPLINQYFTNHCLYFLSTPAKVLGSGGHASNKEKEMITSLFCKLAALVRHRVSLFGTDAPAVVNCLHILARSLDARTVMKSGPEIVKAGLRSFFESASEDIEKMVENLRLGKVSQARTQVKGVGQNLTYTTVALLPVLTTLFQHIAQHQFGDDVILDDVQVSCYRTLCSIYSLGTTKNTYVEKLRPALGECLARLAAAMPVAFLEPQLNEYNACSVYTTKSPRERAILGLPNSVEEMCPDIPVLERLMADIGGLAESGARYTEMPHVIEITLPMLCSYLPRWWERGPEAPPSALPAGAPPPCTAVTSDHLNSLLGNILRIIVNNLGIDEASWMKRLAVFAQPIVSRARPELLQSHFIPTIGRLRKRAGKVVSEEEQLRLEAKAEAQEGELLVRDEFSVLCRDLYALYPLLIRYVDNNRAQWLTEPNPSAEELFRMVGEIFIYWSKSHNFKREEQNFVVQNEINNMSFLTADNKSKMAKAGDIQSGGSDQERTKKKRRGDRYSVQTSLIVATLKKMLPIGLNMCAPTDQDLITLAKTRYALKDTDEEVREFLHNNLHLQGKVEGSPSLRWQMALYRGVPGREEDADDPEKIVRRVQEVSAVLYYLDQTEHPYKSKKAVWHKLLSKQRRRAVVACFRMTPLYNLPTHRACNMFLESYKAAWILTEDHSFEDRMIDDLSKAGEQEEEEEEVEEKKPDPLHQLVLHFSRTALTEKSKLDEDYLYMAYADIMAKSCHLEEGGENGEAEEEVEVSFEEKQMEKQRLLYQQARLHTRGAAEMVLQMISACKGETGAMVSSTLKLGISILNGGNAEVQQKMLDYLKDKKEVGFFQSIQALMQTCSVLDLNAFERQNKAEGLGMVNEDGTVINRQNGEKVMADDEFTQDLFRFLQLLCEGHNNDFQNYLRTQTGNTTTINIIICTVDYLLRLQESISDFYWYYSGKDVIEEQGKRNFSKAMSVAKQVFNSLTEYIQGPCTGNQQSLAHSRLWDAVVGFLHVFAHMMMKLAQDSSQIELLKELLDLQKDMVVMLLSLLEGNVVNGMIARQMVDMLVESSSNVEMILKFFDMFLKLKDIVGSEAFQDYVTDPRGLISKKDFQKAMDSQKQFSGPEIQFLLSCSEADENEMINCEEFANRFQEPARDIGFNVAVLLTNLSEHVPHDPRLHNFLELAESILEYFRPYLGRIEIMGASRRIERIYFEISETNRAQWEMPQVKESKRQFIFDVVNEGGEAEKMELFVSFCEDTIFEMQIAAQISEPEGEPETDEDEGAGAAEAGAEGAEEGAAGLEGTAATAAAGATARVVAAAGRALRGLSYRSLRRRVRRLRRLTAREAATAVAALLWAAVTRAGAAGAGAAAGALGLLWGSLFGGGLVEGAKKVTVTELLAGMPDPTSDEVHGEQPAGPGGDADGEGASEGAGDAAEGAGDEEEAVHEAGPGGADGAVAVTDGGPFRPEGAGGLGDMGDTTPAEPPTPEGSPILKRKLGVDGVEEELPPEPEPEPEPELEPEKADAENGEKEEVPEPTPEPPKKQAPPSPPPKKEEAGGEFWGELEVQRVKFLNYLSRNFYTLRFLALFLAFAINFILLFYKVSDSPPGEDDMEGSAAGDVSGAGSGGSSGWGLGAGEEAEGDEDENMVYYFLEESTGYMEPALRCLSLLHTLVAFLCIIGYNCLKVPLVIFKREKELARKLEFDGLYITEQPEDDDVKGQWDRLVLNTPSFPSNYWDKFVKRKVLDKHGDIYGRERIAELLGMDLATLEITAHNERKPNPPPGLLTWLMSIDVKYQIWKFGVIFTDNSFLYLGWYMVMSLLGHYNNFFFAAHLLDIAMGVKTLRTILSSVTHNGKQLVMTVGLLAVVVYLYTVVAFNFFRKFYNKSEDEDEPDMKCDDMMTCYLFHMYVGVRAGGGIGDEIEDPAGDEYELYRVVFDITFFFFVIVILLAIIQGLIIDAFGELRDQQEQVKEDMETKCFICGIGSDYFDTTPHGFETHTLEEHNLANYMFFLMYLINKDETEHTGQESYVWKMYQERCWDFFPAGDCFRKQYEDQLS

Molecular target: T1, ryanodine receptor 1 (RyR1) (Homo sapiens, UniProt P21817)
T1 construct: wild-type human skeletal myotubes
Assay: Fura-2 Ca2+ imaging, ryanodine concentration response ([…])
Format: cell-based

**Q.** How did the “Fura-2 Ca2+ imaging, ryanodine concentration response (2-1000 nM)” value turn out when ryanodine was run?
**A.** ~ 1 μM
